Test system: human red blood cells (hRBC)
Assay: Hemolytic activity
Type: cell-based
Conditions: minimum concentration that caused 5% hemolysis of hRBC (footnote); 1% hRBC in PBS pH 7.4, 1 h, 37°C, OD 492 nm
Procedure: The amount of released hemoglobin by the lysis of erythrocytes was measured for hemolytic activity of peptides. Human erythrocytes were obtained from a healthy donor with written informed consent. The experimental protocol was reviewed and approved by the ethics committee of the Northeast Agricultural University Hospital. The measurement was based on a previously described method. The fresh hRBCs were washed three times by centrifugation (1000 g, 5 min, 4°C) in PBS (pH 7.4), and then resuspended in PBS to obtain the erythrocyte with a dilution of approximately 1% (v/v). Then, 50 µL of hRBCs solution was incubated with 50 µL of different concentrations of the peptides dissolved in PBS for 1 h at 37°C, before centrifugation (1000 g, 5 min, 4°C) again. The absorbance of the supernatants was measured at optical density (OD) 492 nm. […] The control samples for 0% and 100% hemolysis consisted of hRBCs in PBS (Ablank) only and in 0.1% Triton X-100 (Atriton), respectively. The percentage of hemolysis was calculated according to the following equation: [drawing 3]

CC[C@H](C)[C@H](NC(=O)CN)C(=O)NCC(=O)N[C@@H](C)C(=O)N[C@H](C(=O)N[C@@H](CC(C)C)C(=O)N[C@@H](CCCCN)C(=O)N[C@H](C(=O)N[C@@H](CC(C)C)C(=O)N[C@H](C(=O)N[C@H](C(=O)NCC(=O)N[C@@H](CC(C)C)C(=O)N1CCC[C@H]1C(=O)N[C@@H](C)C(=O)N[C@@H](CC(C)C)C(=O)N[C@H](C(=O)N[C@@H](CO)C(=O)N[C@@H](Cc1c[nH]c2ccccc12)C(=O)N[C@H](C(=O)N[C@@H](CCCCN)C(=O)N[C@@H](CCCNC(=N)N)C(=O)N[C@@H](CCCCN)C(=O)N[C@@H](CCCNC(=N)N)C(=O)N[C@@H](CCC(N)=O)C(=O)N[C@@H](CCC(N)=O)C(N)=O)[C@@H](C)CC)[C@@H](C)CC)[C@@H](C)O)[C@@H](C)O)C(C)C)C(C)C [ME26, melittin, reference compound]
MHC: 0.25 µM
